Molecular target: T1, hOX40L expressed on CHO-S cells (Homo sapiens, UniProt P23510)
T1 construct: expressed in transfected cells
T1 sequence (P23510 1-183): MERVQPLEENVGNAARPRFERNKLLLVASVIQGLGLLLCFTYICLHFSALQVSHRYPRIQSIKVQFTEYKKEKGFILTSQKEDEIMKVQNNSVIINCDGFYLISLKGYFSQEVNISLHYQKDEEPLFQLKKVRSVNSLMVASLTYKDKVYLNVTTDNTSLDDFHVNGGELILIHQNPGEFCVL
Experiment: Binding to CHO-S expressed hOX40L (FACS)
Conditions: binding to CHO-S expressed hOX40L by FACS
Experimental: To determine whether wells selected using the primary screen selection criteria had the required characteristics set by the inventors, a number of assays were performed. Hybridoma clones selected as hits from primary screening were cultured for 3 days and the supernatants collected from hybridoma cells were tested to assess whether the secreted antibodies that bind to CHO-S expressed hOX40L, in some case bind to untransfected CHO-S cells and whether they neutralise recombinant OX40R Fc binding to CHO-S hOX40L and ability to neutralise OX40R binding to recombinant biotinylated hOX40L.
CHO-S cells expressing hOX40L or untransfected CHO-S cells, diluted in FACS buffer (PBS+1% w/v BSA+0.1% w/v NaN3) were distributed to a 96 well V-bottom plate (Greiner) at a density of 1×10^5 cells per well. […]
To fix cells 100 μL 2% v/v paraformaldehyde was added and cells incubated for 30 minutes at 4° C., cells were pelleted by centrifugation 300×g and the plates and resuspended in 50 μL of FACS buffer. PE and APC signal intensity (geomean) was measured by flow cytometry using a BD FACS Array instrument.
% of control binding was calculated using geomean fluorescence as described in equation 1 where total binding was defined as reference antibody at 10 μg/mL and non-specific binding as mouse IgG1 antibody at 10 μg/mL. % receptor binding was calculated using Equation 3. […]

B1: 19H01 (hybridoma): murine/human chimeric anti-OX40L antibody purified from hybridoma supernatant (protein, listed as Homo Sapiens)
chain: EVQLVESGGGLVKPGGSLRLSCAASGFTFSNAWMSWVRQAPGKGLEWVGRIKSKTEGGTTDYAAPVKGRFTISRDDSKNTLYLQMNSLKTEDTAVYYCTTDFLWFGEFPFDYWGQGTLVTVSS
modifications: VH only; VL and constant regions missing
notes: murine/human chimeric anti-OX40L antibody purified from hybridoma supernatant
- FACS Binding: YES
